Literature values as cited in paper PMC9454457 (Journal of Nuclear Medicine, 2022).

Amino acid sequences for entries named in this document (tags omitted). A change or cut given only in a name is not applied to a line headed by its entry.
UniProt P30550: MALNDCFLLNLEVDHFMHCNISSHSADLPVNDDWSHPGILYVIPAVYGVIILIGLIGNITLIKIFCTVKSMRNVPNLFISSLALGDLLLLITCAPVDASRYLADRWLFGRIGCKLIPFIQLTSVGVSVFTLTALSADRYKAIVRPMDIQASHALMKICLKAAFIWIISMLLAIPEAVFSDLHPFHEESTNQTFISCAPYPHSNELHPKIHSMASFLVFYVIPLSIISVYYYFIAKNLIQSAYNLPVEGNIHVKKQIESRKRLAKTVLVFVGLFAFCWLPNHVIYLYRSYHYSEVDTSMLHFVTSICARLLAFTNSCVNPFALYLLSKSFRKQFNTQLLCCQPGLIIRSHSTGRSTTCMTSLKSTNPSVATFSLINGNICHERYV

Target: T1, GRPR (Homo sapiens, UniProt P30550)
T1 construct: endogenous in cells; host or cells: PC-3 cells
Design: method as in PMID 20717822, PMID 29137110, PMID 29556947, PMID 25684649
Conditions: literature values; read-out: IC50 values reported; cited from earlier work

In the case of “^natIn-RM2: natIn complex of RM2, literature value”, the IC50 is listed as 9.3 nM.
